Nrf2 activator: Nrf2 pathway activation. AREc32 ARE-luciferase reporter (MCF7-derived line), luminescence, 24 h. actives 0.31% (n = 410,000). Potency, µM (titrated, usually from 46.1 µM), inactives show top-dose activation, actives largely listed as activators. AID 624171; further: potency means the concentration at half of the fitted maximal effect; % of control where 0% means no effect; nearly all actives have a fitted effect of over 65% in size
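Each well held 1000 AREc32 cells, which were incubated with compound for 24 hr at 37 deg C after overnight attachment, and ARE reporter activity was quantified by firefly luciferase luminescence.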
TSG101-PTAP inh: blocks PTAP/TSG101 interaction to inhibit HIV-1 budding; Q99816; Fluorescence polarization, FITC-PTAP peptide / Tsg101 binding; Potency, µM (titrated, usually from 115 µM), without a hit: at the top dose activity change, negative = inhibition, usual class: inhibitors; 340,000 tested, under 10 active; active means well fitted inhibition curve with a large enough effect in the main read-out, with a control signal flat, not every such curve was filed as active; inconclusive means small, poorly fitted or top-dose-only effect, or effect the other way, or a change in a side signal; inactive means no such curve, though single readings can be large or run the other way; further: potency means the concentration at half of the fitted maximal effect; % of control where 0% means no effect
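Fluorescence polarization binding of Tsg101 binding domain (10 uM final) to FITC-labeled PTAP peptide (50 nM final) in HEPES pH 7.5 buffer with NaCl, Tween 20, EDTA, TCEP. Compounds added before peptide; binding 20 min at RT.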
miR-21 reporter: raises the signal of a miR-21 reporter | HeLa miR-21 FLuc reporter, luciferase, 48 h | Potency, µM (highest dose often 38.3 µM), inactives show at the highest dose reporter change, positive = more light | 340,000 tested, under 10 active | AID 2288; active = well fitted rising curve with a large enough effect; inconclusive = small, poorly fitted or top-dose-only effect; inactive = no such curve, though single readings can be large or run the other way;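 note: % of control where 0% means no effect; miR-21 action dims this reporter so a rising signal means less miR-21 action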
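Using DMEM plus 10% FBS, HeLa miR-21-FLuc cells are incubated with test compounds (final up to about 40uM) for 48 hours; firefly luciferase signal is then imaged following reagent-mediated lysis.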
Glioma ERSR ind: induces the endoplasmic reticulum stress response in human glioma cells; U87-MG GRP78 promoter luciferase reporter, 16 h; Potency, µM, for inactives: at the top dose activation, hits mostly activators; actives 0.02% (n = 420,000); further: potency means the concentration at half of the fitted maximal effect; series mostly up to about 76 µM; % of control where 0% means no effect; nearly all actives have a fitted effect of over 35% in size
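Stably transfected U87-MG glioma cells carrying a GRP78-based luciferase sensor; 16 h compound incubation. Luminescence end-point read 10 min after Bright-Glo addition at room temperature.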
A549 viability: counter-screen for Nrf2 inhibitors: cytotoxicity in A549 cells. actives 0.16% (n = 390,000). A549 ARE-Fluc cells, CellTiter-Fluor viability, 18-24 h. AID 504648. Potency, µM (doses to about 46 µM), inactives show at the top dose activity change, negative = cytotoxicity, most hits filed as inhibitors; further: potency means the concentration at half of the fitted maximal effect; on the % scale 0 is the no-effect control and ±100 the full control effect
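A549 ARE_Fluc cells in 5% FBS OPTI-MEM were exposed to compounds in concentration-response for 18-24 h at 37 deg C. Viability was read by CellTiter-Fluor fluorescence (Ex 405/Em 525) after 30 min, before the luciferase read.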
Nrf2 inh: blocks Nrf2 signaling. A549 ARE-Fluc reporter, luciferase luminescence, 18-24 h. actives 2.1% (n = 360,000). Potency, µM (doses to about 46 µM), for inactives: top-dose activity change, negative = inhibition, hits mostly inhibitors; further: potency means the concentration at half of the fitted maximal effect; on the % scale 0 is the no-effect control and ±100 the full control effect; nearly all actives have a fitted effect of over 60% in size
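A549 ARE_Fluc cells (5000/well, 5% FBS OPTI-MEM) pre-incubated 2 h, then treated with compounds 18-24 h at 37C/5% CO2 in concentration-response. CellTiter-Fluor viability read first; BugLite luciferase luminescence after 15 min at room temperature gives Nrf2 activity.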
Starred values were filed as active, the others as inactive; ? = inconclusive; / = no result given; ! = not active in a repeat. In the library only some 2.1% were active in any assay of this set; here they are far more common. Unless noted, the call rests on the fitted dose curve; in most records, active means well fitted curve in the direction sought with a large enough effect; inconclusive means small, poorly fitted or top-dose-only effect, or another doubt; inactive means no such curve, though single readings can be large; an effect the other way counts as inactive or inconclusive.

Key to letters: A = Nrf2 activator; B = TSG101-PTAP inh; C = miR-21 reporter; D = Glioma ERSR ind; E = A549 viability; F = Nrf2 inh
COc1ccc(/C(C)=N/Nc2nccnc2Cl)cc1
  A: 14%; B: -7%; C: /; D: -1%; E: 0%; F: ?
O=[N+]([O-])c1cc([N+](=O)[O-])c2c(=Nc3ccccc3)n(-c3ccccc3)n(O)c2c1
  A: 14µM*; B: -2%; C: 16%; D: 20%; E: -22%; F: -11%
COc1cc2nc(CN(CCO)C3CS(=O)(=O)CC3O)nc(N3CCCCC3)c2cc1OC (stereo not given)
  A: /; B: /; C: /; D: -3%; E: /; F: /
CCC(C)(C)c1ccc(OCCCC[n+]2ccc(C)cc2)c(C(C)(C)CC)c1
  A: -3%; B: 0%; C: ?; D: -14%; E: ?; F: 13µM*
CCC(C)(C)c1ccc(OCCCC[n+]2cccc(C)c2C)c(C(C)(C)CC)c1
  A: -4%; B: 1%; C: ?; D: -13%; E: 12µM*; F: 5.8µM*
CN1[C@@H]2CC[C@H]1CC(OC(=O)[C@@H](CO)c1ccccc1)C2 (stereo not given in full)
  A: /; B: /; C: /; D: -3%; E: /; F: /
COCC1CCCN(Cc2ccc3c(c2)CN(C(=O)c2cnn(C(C)C)c2)CCO3)C1 (stereo not given)
  A: /; B: /; C: /; D: -2%; E: /; F: /
CCOc1cc(C)c(-c2onc(C(F)(F)F)c2-c2csc(C)n2)c(O)c1
  A: 2%; B: -7%; C: ?; D: -3%; E: 26µM*; F: ?
CC(=O)Nc1ccc(Oc2sc(C(=O)c3ccccc3)c(N)c2C#N)cc1
  A: 8.9µM*; B: -1%; C: 27%; D: -4%; E: ?; F: /
COc1cc(SC)ccc1C(=O)Nc1nc2ccccc2[nH]1
  A: -2%; B: -1%; C: ?; D: -19%; E: -12%; F: 1.6µM*

Other compounds.
Key to letters: A = Nrf2 activator; B = TSG101-PTAP inh; C = miR-21 reporter; D = Glioma ERSR ind; E = A549 viability; F = Nrf2 inh
COc1ccccc1C(=O)Nc1nc2ccccc2[nH]1
  A: -2%; B: 4%; C: ?; D: -19%; E: 2%; F: ?
O=S1(=O)CCO[C@H]2CCCC[C@@H]2N1Cc1ccccc1F
  A: /; B: /; C: /; D: -3%; E: /; F: /
Clc1ccc[n+](CCCCC[n+]2cccc(Cl)c2)c1
  A: /; B: /; C: /; D: -1%; E: /; F: /
C=CS(=O)(=O)c1ccc(Oc2ccc(S(=O)(=O)C=C)cc2)cc1
  A: -2%; B: 4%; C: ?; D: -14%; E: ?; F: 18µM*
O=C(C[N+]12CCCc3cccc(c31)CCC2)c1ccc2ccccc2c1
  A: /; B: /; C: /; D: -2%; E: /; F: /
Cc1cccc(N2CCN(S(=O)(=O)c3ccc(-c4ccc(=O)[nH]n4)o3)CC2)c1C
  A: -1%; B: 1%; C: -3%; D: -6%; E: ?; F: 13µM*
CCOC(=O)C1C(=O)C=C(c2cccc(NS(C)(=O)=O)c2)CC1c1ccco1 (stereo not given)
  A: 9%; B: -1%; C: -12%; D: 4%; E: -1%; F: -9%
CCOC(=O)C1C(=O)C=C(c2ccc(Br)cc2)CC1c1ccco1 (stereo not given)
  A: 0%; B: -1%; C: 3%; D: -3%; E: ?; F: 23µM*
O=C(C1CCN(c2ncnc3c2nc2n3CCCCC2)CC1)N1CCN(c2cccc(Cl)c2)CC1
  A: -2%; B: 0%; C: ?; D: -5%; E: 1%; F: ?
CCN(C(=O)C1CCCN(c2ncnc3c2nc2n3CCCCC2)C1)c1cccc(Cl)c1 (stereo not given)
  A: 2%; B: 3%; C: ?; D: -4%; E: 0%; F: 15µM*!

(cont.)
Key to letters: A = Nrf2 activator; B = TSG101-PTAP inh; C = miR-21 reporter; D = Glioma ERSR ind; E = A549 viability; F = Nrf2 inh
Clc1cccc(N2CCN(c3ncnc4c3nc3n4CCCCC3)CC2)c1
  A: 0%; B: /; C: ?; D: -6%; E: ?; F: 13µM*
CSc1cccc(NC(=O)C2CCCN(c3ncnc4c3nc3n4CCCCC3)C2)c1 (stereo not given)
  A: 0%; B: 0%; C: -1%; D: -6%; E: -20%; F: 18µM*
CC(=O)c1ccc(NC(=O)C2CCCN(c3ncnc4c3nc3n4CCCCC3)C2)cc1 (stereo not given)
  A: -1%; B: -2%; C: 0%; D: -5%; E: -1%; F: 2%
CC(C)=CCC/C(C)=C\CC/C(C)=C\CC/C(C)=C\CC1=C(C)C(=O)c2ccccc2C1=O
  A: /; B: /; C: /; D: -4%; E: /; F: /
Cc1ccc(C(=O)N(Cc2cc3cccc(C)c3nc2N2CCC(O)CC2)C2CC2)cc1
  A: /; B: /; C: /; D: -5%; E: /; F: /
Cc1nc(C)c(C(=O)NCCC(c2ccccc2)c2ccccc2)o1
  A: 1%; B: 0%; C: 20%; D: -1%; E: -22%; F: 10µM*
COC(=O)N[C@H](c1ccccc1)[C@@]1(C)C[C@@H]1[C@@H](C)C(=O)Nc1ccc2ccccc2c1
  A: 0%; B: -3%; C: /; D: -4%; E: ?; F: 18µM*!
CCOc1ccc(OCC)c(NC(=O)C2COc3ccccc3O2)c1 (stereo not given)
  A: 3%; B: -2%; C: 0%; D: -1%; E: 0%; F: ?
Cc1cc(C)nc(NS(=O)(=O)c2ccc(NC(=O)C3COc4ccccc4O3)cc2)n1 (stereo not given)
  A: -1%; B: -3%; C: -6%; D: -2%; E: 1%; F: ?
CCOc1ccccc1NC(=O)C1COc2ccccc2O1 (stereo not given)
  A: 6.3µM*; B: -5%; C: -17%; D: 6%; E: 13%; F: 15%

Remaining list, next part.
Key to letters: A = Nrf2 activator; B = TSG101-PTAP inh; C = miR-21 reporter; D = Glioma ERSR ind; E = A549 viability; F = Nrf2 inh
COc1ccc(OC)c(NC(=O)C2COc3ccccc3O2)c1 (stereo not given)
  A: 4%; B: -2%; C: -31%; D: 1%; E: -7%; F: -10%
COc1ccc(Cl)cc1NC(=O)C1COc2ccccc2O1 (stereo not given)
  A: 3.5µM*; B: -5%; C: -30%; D: 3%; E: 0%; F: 3%
O=C(Nc1ccc(S(=O)(=O)Nc2ccccc2)cc1)C1COc2ccccc2O1 (stereo not given)
  A: 3%; B: -2%; C: ?; D: -4%; E: -27%; F: 18µM*
O=C(/C=C1\NC2(CCCC2)Cc2ccccc21)C(=O)N/N=C/c1ccccc1O
  A: 0%; B: -3%; C: 27%; D: -1%; E: ?; F: 15µM*
CC(C)N1[N]C(=C2C=c3cc(O)ccc3=N2)c2c(N)ncnc21
  A: /; B: /; C: /; D: -6%; E: /; F: /
CCO[C@H]1[C@H](NC(=O)c2cccnc2)c2ccccc2C12CCN(C(=O)c1ccoc1)CC2
  A: /; B: /; C: /; D: -2%; E: /; F: /
C=CCNC(=S)Nc1ccc(Cl)cc1F
  A: 6%; B: -1%; C: -6%; D: -2%; E: -2%; F: -26%
C=CCNC(=S)Nc1ccc(Br)cc1F
  A: 3%; B: -2%; C: -22%; D: 4%; E: 0%; F: 23µM*
CCCNC(=S)Nc1ccc(Cl)cc1C
  A: 1%; B: -9%; C: 0%; D: -3%; E: -2%; F: 0%
CCCNC(=S)Nc1ccc(F)cc1F
  A: 0%; B: 3%; C: 5%; D: -2%; E: 1%; F: 12µM*

3 entries drawn at random from the list so far:
Key to letters: A = Nrf2 activator; B = TSG101-PTAP inh; C = miR-21 reporter; D = Glioma ERSR ind; E = A549 viability; F = Nrf2 inh
C=CCNC(=S)Nc1ccc(Cl)cc1F
  A: 6%; B: -1%; C: -6%; D: -2%; E: -2%; F: -26%
CCCNC(=S)Nc1ccc(F)cc1F
  A: 0%; B: 3%; C: 5%; D: -2%; E: 1%; F: 12µM*
O=C(/C=C1\NC2(CCCC2)Cc2ccccc21)C(=O)N/N=C/c1ccccc1O
  A: 0%; B: -3%; C: 27%; D: -1%; E: ?; F: 15µM*

Next results follow.
Key to letters: A = Nrf2 activator; B = TSG101-PTAP inh; C = miR-21 reporter; D = Glioma ERSR ind; E = A549 viability; F = Nrf2 inh
Cc1ccc(S(=O)(=O)N2CCN(c3nc(-c4cncs4)nc4ccccc34)CC2)cc1
  A: /; B: /; C: /; D: /; E: 9%; F: 2%
COc1cc2c(NC3CCN(C)CC3)nc(N3CCCN(C)CC3)nc2cc1OCC1CCCCN1 (stereo not given)
  A: /; B: /; C: /; D: -6%; E: /; F: /
O=C1C=CC(=O)N1Cc1ccncc1
  A: 0%; B: -6%; C: /; D: -3%; E: -1%; F: 14%
O=C1C=CC(=O)N1CCCCCCCCCCN1C(=O)C=CC1=O
  A: ?; B: -5%; C: /; D: -11%; E: ?; F: 26µM*
C=CC[C@H](c1ccc(F)cc1)N(CC(C)C)S(=O)(=O)C=C
  A: /; B: /; C: /; D: -5%; E: /; F: /
